This note sets out measurements from patent US9220775B2, “Binding molecules specific for HER3 and uses thereof” (Medlmmune LLC, priority 2011, dated 2015).

One test has as its system HCT-116 xenograft tumors. Put plainly: Subcutaneous human HCT-116 CRC xenograft model. It counts as in vivo, mouse. The conditions noted are these: 10 mg/kg twice per week. The text has this: (§1) Xenografts were established by subcutaneously injecting 5×10^6 cells per mouse into the right flanks of 4- to 6-week-old athymic nu/nu mice. Tumors were allowed to grow up to 200 mm^3 before randomization for efficacy studies. […] Caliper measurements were used to calculate tumor volumes using the formula: tumor volume=π÷6(length×width×width) • for tumors grown in mice.

In another test the test system is HT-29 xenograft tumors. Put plainly: Subcutaneous human HT-29 CRC xenograft model. In kind it is in vivo, mouse. The settings on record: 2C2 and 2C2-YTE 30 mg/kg, cetuximab 10 mg/kg.
From the text: as §1

The subject of another test is LOVO xenograft tumors. Put plainly: Subcutaneous human LOVO CRC xenograft model. The settings on record: all at 10 mg/kg. It counts as in vivo, mouse. The protocol:
Human LOVO colorectal carcinoma cells (ATCC No. CCL-229) were maintained at 37° C. in a 5% CO2 incubator in HAM'S F12K medium containing 4.5 g/L glucose, L-glutamine, sodium pyruvate and 10% fetal bovine serum. Xenografts were established by subcutaneously injecting 5×10^6 cells per mouse into the right flanks of 4- to 6-week-old athymic nu/nu mice. Tumors were allowed to grow up to 200 mm^3 before randomization for efficacy studies. […] Caliper measurements were used to calculate tumor volumes using the formula: tumor volume=π÷6(length×width×width) • for tumors grown in mice.
For orientation: Xenograft models place foreign cells or tissue in a host animal.

Test [1] has as its system Detroit562 xenograft tumors. Put plainly: Subcutaneous human Detroit562 head and neck xenograft model. The settings on record: 10 mg/kg twice per week. It counts as in vivo, mouse.
From the text: as §1

For test [2], the system named is HER3, pHER3 and pAKT in SW620, SW480, Colo205, LOVO, HCT15 and Caco-2 cells. Put plainly: HRG ligand-dependent signaling in CRC tumor cell lines (Western blot). In kind it is cell-based, human. The settings on record: antibodies 10 μg/mL, gefitinib 5 μM, HRG 50 ng/mL. The protocol:
In the presence of the HER3 ligand heregulin (HRG), HER3 heterodimerizes with EGFR or HER2, which leads to phosphorylation of HER3 and transmission of an oncogenic signal via phosphoinositide 3 kinase (PI3K) and protein kinase B (PKB), also known as AKT. A collection of CRC models were characterized to determine which receptor tyrosine kinase, EGFR or HER2, is the major driver of signaling through HER3. […] Briefly, cells were seeded into 24-well plates at a density of 1.5×10^5 cells per well. […] After 5-6 hours of incubation at 37° C., HRG was added at 50 ng/mL into one set of cells for 15 minutes at 37° C. All cells were then washed with cold PBS and lysed by the addition of 60 μL of 2×SDS (sodium dodecyl sulfate) sample buffer (Invitrogen). Lysates were transferred to 1.5 mL tubes and boiled for 5 minutes followed by chilling on ice for 2 minutes. Equal volumes (20 μL) of protein samples were resolved in NuPAGE Novex Bis-Tris gels (Invitrogen) before transfer to polyvinylidene fluoride (PVDF) membranes (Invitrogen). […] After washing, protein bands were detected on X-ray film by using SuperSignal West Pico Chemiluminescent Substrate (Pierce/Thermo Scientific).

The test system of another test is BT-474 and SkBR3. Put plainly: PBMC-enabled ADCC assay. The settings on record: data not shown. In kind it is cell-based, human. On the procedure: ADCC is one recognized way through which a monoclonal antibody can confer its anti-tumor efficacy in vivo. […] 2C2-YTE was tested in CDC assays using human serum as a source of complement.
Test [3] has as its system MDA-MB-361 xenograft tumors. Put plainly: Orthotopic human MDA-MB-361 breast cancer xenograft model. It counts as in vivo, mouse. The settings on record: 2C2-YTE 30 mg/kg, trastuzumab and rhuMAb 2C4 10 mg/kg, lapatinib 100 mg/kg twice daily. On the procedure: (§2) Orthotopic xenografts were established by injecting 5×10^6 cells per mouse (suspended in 50% matrigel) into the mammary fat pad on the right flank of 4 to 6-week-old athymic nu/nu mice. Estrogen pellets (0.36 mg) were placed under the skin of the left flank 1-2 days before cell injection. […] Lapatinib was administered by oral gavaging at 100 mg per kilogram body weight. Caliper measurements were used to calculate tumor volumes using the formula: tumor volume=π÷6(length×width×width) • for tumors grown in mice.

For the next test, the system named is MCF-7 xenograft tumors. In words: Orthotopic human MCF-7 breast cancer xenograft model. The conditions noted are these: antibodies 10 mg/kg, paclitaxel 10 mg/kg i.v. every second day for ten days. It counts as in vivo, mouse. The protocol: as §2, with “Human MCF-7 breast cancer cells were maintained at 37° C. in a 5% CO2 incubator in Optimem medium containing glutamax, 2.4/L sodium bicarbonate, Hepes and 5% fetal bovine serum. Orthotopic” for “Orthotopic”, “injection. Tumors were allowed to grow up to 200 mm^3 before randomization for efficacy studies. 2C2, 2C2-YTE and trastuzumab monoclonal antibodies were administered intraperitoneally.” for “injection.”, “Paclitaxel” for “Lapatinib”, “intravenously” for “by oral gavaging”, “10” for “100”

With cetuximab [reference compound], the Anti-tumor efficacy result in the test on HCT-116 xenograft tumors is on record as “no efficacy”; with HT-29 xenograft tumors it was “no measurable anti-tumor activity”; with LOVO xenograft tumors it was “comparable efficacy”; in test [1] it was “caused tumor growth inhibition”. Besides, in test [2], the “HRG ligand-dependent signaling (HER3, pHER3, pAKT)” value is “no effect”.

For trastuzumab, the ADCC effect result in the test on BT-474 and SkBR3 was “significant tumor-killing effects”. Moreover, the Anti-tumor efficacy entry in test [3] is reported as “showed anti-tumor efficacy”; in the test on MCF-7 xenograft tumors it was “did not demonstrate efficacy”.
